This is a sample that favours compounds with a hit; in the whole collection about 0.43% have one here.
HCMV NEC inh = inhibitors of HCMV UL50-UL53 interaction, biochemical, HTRF | HCMV UL50-UL53 nuclear egress complex (human cytomegalovirus) | normalized percent inhibition | inhibition, % (test concentration not listed) | 190,000 compounds, 0.15% hits | AID 1918969, 2023; in the data active = inhibition above about 27%, passing the limit was not always enough
GIV Gai3 FP = inhibitors of GIV GBA-motif binding to rat Galpha-i3; P08753; Galpha-i3/FITC-GIV peptide fluorescence polarization, 90 min; hits give low values; scaled: aluminum fluoride 0%, vehicle 100%; percent of control (FP), % (test concentration not listed); actives 0.42% (n = 210,000); AID 1224905;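 active = replicate mean at 85% of control or lower, very high polarization wells dropped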;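 also: wells of about 15 µL received 100 nL stock; the first replicate is given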
GIV-Gai FP conf = inhibitors of GIV peptide binding to Galpha-i3, confirmation, biochemical, fluorescence polarization, FITC-GIV peptide, rat Galphai3. shares compounds with GIV Gai3 FP. stronger effect = lower value. fluorescence polarization, mP at 100 µM. 580 compounds, 38% hits. AID 1259350, 2017;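 active = inhibition score of 15 or more, meaning 100 minus mean polarization as percent of control over three replicates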
GIV Gai AS conf = inhibitors of GIV binding to Galpha-i3, confirmation, orthogonal assay for GIV-Galpha-i inhibitor project, biochemical, AlphaScreen, His-GIV, GST-Galphai3. AlphaScreen counts at 100 µM. 580 compounds, 39% hits. shares compounds with GIV Gai3 FP. purified proteins, 90 min; stronger effect = lower value;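 active = inhibition score at or above a set limit, where the score is 100 minus the three-replicate mean percent of control signal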
Each line names hits and unclear results; the compound was inactive in the other large screens (follow-up assays come after a bar, where they were run).

CC(=O)Nc1ccc(NC(=O)c2ccco2)cc1	none
CC1(C(=O)NC2CCCC2)Cn2c(cc3ccccc32)C(=O)N1CCN1CCOCC1 (stereo not drawn)	none
CCC(=O)Nc1ccc(C)cc1-c1nnc(SC(CC)C(=O)Nc2c(C)cc(C)cc2C)[nH]c1=O (stereo not drawn)	none
COc1ccccc1CNC(=O)c1sc2nc[nH]c(=O)c2c1C	none (no result: GIV Gai3 FP)
CC1(C)Cc2ccccc2C2=NNC(=O)C2=N1	GIV Gai3 FP 76 | GIV-Gai FP conf 54 | GIV Gai AS conf inactive
CC1(C)Cc2ccccc2C(C2=C(O)CCCC2=O)=N1	none (no result: HCMV NEC inh)
CN(C)c1ccc(C(CNC(=O)c2ccc(Br)cc2)N(C)C)cc1 (stereo not drawn)	none
COCCN1C(=O)c2oc3cc(C)c(C)cc3c(=O)c2C1c1ccccc1F (stereo not drawn)	none (no result: GIV Gai3 FP)
Cn1c(=O)c(C(=O)N2CC=C(c3ccccc3)CC2)nn(-c2ccc(Cl)cc2)c1=O	none
COc1ccc(/C=C2\C=C(c3ccccc3)N(c3ccc(O)cc3)C2=O)cc1Br	none (no result: HCMV NEC inh)
COc1ccc(/C=C2\C=C(c3ccccc3)N(c3ccc(Br)cc3)C2=O)cc1	none (no result: HCMV NEC inh)
COc1ccc(/C=C2\C=C(c3ccccc3)N(c3cccnc3)C2=O)cc1Br	GIV Gai3 FP 44 (no result: HCMV NEC inh) | GIV-Gai FP conf inactive | GIV Gai AS conf inactive
COC(=O)c1cc(N2C(=O)/C(=C/c3ccc(OC)c(Br)c3)C=C2c2ccccc2)ccc1Cl	GIV Gai3 FP 7.0 (no result: HCMV NEC inh) | GIV-Gai FP conf inactive | GIV Gai AS conf inactive
COc1ccc(/C=C2\C=C(c3ccccc3)N(c3ccc(Cl)c(Cl)c3)C2=O)cc1Br	none (no result: HCMV NEC inh)
COc1ccc(/C=C2\C=C(c3ccccc3)N(c3cccc(C(C)=O)c3)C2=O)cc1Br	GIV Gai3 FP 78 (no result: HCMV NEC inh) | GIV-Gai FP conf inactive | GIV Gai AS conf inactive
COc1ccc(/C=C2\C=C(c3ccccc3)N(c3ccc(Br)cc3)C2=O)cc1Br	none (no result: HCMV NEC inh)
COc1ccc(N2C(=O)/C(=C/c3ccc(Cl)cc3)C=C2c2ccccc2)cc1	GIV Gai3 FP 82 (no result: HCMV NEC inh) | GIV-Gai FP conf inactive | GIV Gai AS conf inactive
CCCn1c(C)cc(/C=C(\C#N)C(=O)N2CCN(S(=O)(=O)c3ccccc3C(F)(F)F)CC2)c1C	none (no result: GIV Gai3 FP)
O=C(NCc1cccs1)c1ccc(CSc2nc3ccncc3n2Cc2ccccc2F)cc1	none
CC(C)(C)c1ccc(C(=O)N2CCC(NC(=O)C3CCCCC3)CC2)cc1	none
CN1CC=C(Cc2n[nH]c(=O)c3ccccc23)CC1	none
COC(=O)[C@H](Cc1ccccc1)NC(=O)/C=C/c1ccc(O)cc1	none (no result: GIV Gai3 FP)
CCCS(=O)(=O)N1CCCC(C(=O)NC(C)C)C1 (stereo not drawn)	none
C=CCNC(=O)C1CCCN(S(=O)(=O)CCC)C1 (stereo not drawn)	GIV Gai3 FP 84 | GIV-Gai FP conf inactive | GIV Gai AS conf inactive
O=C(O)CC1N=C(Nc2nc3ccccc3o2)NC1=O (stereo not drawn)	none (no result: GIV Gai3 FP)
O=C(NC1CCN(Cc2ccccc2)CC1)C1CCN(c2cnccn2)CC1	GIV Gai3 FP 67 | GIV-Gai FP conf inactive | GIV Gai AS conf inactive
O=C(NCCc1ccccc1)C1CCN(c2cnccn2)CC1	none
CCOC(=O)c1sc(NC2CCCC2)nc1C	none (no result: GIV Gai3 FP)
Cc1ccc(/C=C2\SC(=S)N(C(CCC(=O)O)C(=O)O)C2=O)cc1 (stereo not drawn)	none (no result: GIV Gai3 FP)
O=C(O)c1cccc(N2C(=O)/C(=C/c3ccccc3)SC2=S)c1	none (no result: GIV Gai3 FP)
CC(C(=O)O)N1C(=O)/C(=C/c2ccco2)SC1=S (stereo not drawn)	GIV Gai3 FP 75 | GIV-Gai FP conf 55 | GIV Gai AS conf 3227
Cc1ccc(/C=C2\SC(=S)N(C(C(=O)O)C(C)C)C2=O)cc1 (stereo not drawn)	none (no result: HCMV NEC inh)
O=C(O)c1cccc(N2C(=O)/C(=C\C=C\c3ccco3)SC2=S)c1	GIV Gai3 FP 74 | GIV-Gai FP conf inactive | GIV Gai AS conf inactive
O=C(O)CCC(C(=O)O)N1C(=O)/C(=C/C=C/c2ccco2)SC1=S (stereo not drawn)	HCMV NEC inh 75, GIV Gai3 FP 39 | GIV-Gai FP conf 47 | GIV Gai AS conf 2132
CC(C(=O)O)N1C(=O)/C(=C\c2ccco2)SC1=S (stereo not drawn)	none (no result: GIV Gai3 FP)
CC(C)C(C(=O)O)N1C(=O)/C(=C/C=C/c2ccco2)SC1=S (stereo not drawn)	HCMV NEC inh 82, GIV Gai3 FP 58 | GIV-Gai FP conf 54 | GIV Gai AS conf 1448
CCn1c(CC(=O)Nc2cccc(OC)c2)nnc1SCC(=O)c1ccccc1	none
O=C(NCc1ccccn1)c1ccc(CN2C(=O)CCn3nccc32)cc1	none
CCOC(=O)c1ccc(-c2nnc(COc3cccc(C)c3)o2)cc1	none
CC(C)(C)C(=O)C1C2C3COC(O3)C(=O)C2C2C=Cc3ccccc3N21 (stereo not drawn)	none
CC(=O)[C@@H]1[C@H]2C3COC(O3)C(=O)[C@@H]2[C@H]2C=Cc3ccccc3N21 (stereo partly drawn)	GIV Gai3 FP 80 (no result: HCMV NEC inh) | GIV-Gai FP conf 51 | GIV Gai AS conf 7239
CN1C(=O)Cc2ccccc2C1=O	HCMV NEC inh 67, GIV Gai3 FP 80 | GIV-Gai FP conf 59 | GIV Gai AS conf 17985
CN1C(=O)Cc2ccccc21	none
Cn1c(=O)c2c(nc(SCC(=O)c3ccccc3)n2CCCc2ccccc2)n(C)c1=O	none (no result: HCMV NEC inh)
COc1ccc(-c2nc3cc(N=Cc4ccccc4O)ccc3o2)cc1	none
Cc1nn(C)c(C)c1-c1ccnc(N2CCC(C(=O)NCc3ccccn3)CC2)n1	none (no result: GIV Gai3 FP)
O=S(=O)(NN1CCOCC1)c1cccc2nonc12	none
N#Cc1ccccc1Cn1cc(C=C2C(=O)NC(=O)NC2=O)c2ccccc21	GIV Gai3 FP 63 | GIV-Gai FP conf inactive | GIV Gai AS conf inactive
O=C1NC(=O)/C(=C\c2cn(Cc3ccccc3F)c3ccccc23)N1	none (no result: HCMV NEC inh)
CCCNC(=O)N1c2ccccc2NC2=C(C(=O)CC(C)(C)C2)C1c1ccc(F)cc1 (stereo not drawn)	none (no result: HCMV NEC inh)
Cc1nc(C)c(-c2nc(-c3cc4c(C)nn(-c5ccccc5)c4s3)no2)s1	none
Cc1ccsc1-c1nc(-c2cc3c(C)nn(-c4ccccc4)c3s2)no1	GIV Gai3 FP 41 | GIV-Gai FP conf inactive | GIV Gai AS conf inactive
O=C(Nc1ccc(F)cc1F)c1ccccc1C(F)(F)F	none (no result: GIV Gai3 FP)
Cc1cc(NS(=O)(=O)c2ccc3c(c2)NC(=O)CC(=O)N3)ccc1Br	none
N#Cc1c(/N=C/c2ccc(Cl)c(Cl)c2)oc(-c2ccccc2)c1-c1ccccc1	GIV Gai3 FP 73 (no result: HCMV NEC inh) | GIV-Gai FP conf 12 | GIV Gai AS conf inactive
N#Cc1c(/N=C/c2ccccc2)oc(-c2ccccc2)c1-c1ccccc1	none (no result: HCMV NEC inh)
CCn1c(-n2nc(C)cc2N)nc2ccccc21	none (no result: GIV Gai3 FP)
C=CCN(CC=C)Cc1ccc(C(=O)OC)o1	GIV Gai3 FP 80 | GIV-Gai FP conf inactive | GIV Gai AS conf inactive
COC(=O)c1ccc(CC#N)o1	none
O=C1C(c2ccnc3ccccc23)=C(O)c2ccccc21	GIV Gai3 FP 64 | GIV-Gai FP conf inactive | GIV Gai AS conf inactive
O=C1C(=O)c2ccccc2C(O)=C1c1ccccc1F	none
CCOC(=O)c1[nH]c(C)c(CCC(=O)Nc2ccc(C(C)=O)cc2)c1C	none (no result: HCMV NEC inh)

Screens (PubChem BioAssay)
